Here are results for 6 molecules from PubChem BioAssay AID1259344 (Tox21, 2017).

SMILES strings stand for the structures. The entries are a selection whose mix differs from that of the whole data set. Results filed as inconclusive are left out. Activity calls are given as the source filed them. Calls follow the shape of the dose curve; as a rule, active = well fitted activation curve with a large enough effect; inconclusive = small, poorly fitted or top-dose-only effect; inactive = flat fitted curve, though single readings scatter.
% is scaled to controls: 0 for no effect and ±100 for the full control effect.

This experiment in a line: qHTS assay to identify small molecule phospholipidosis (PLD) inducers. The following applies: HepG2 phospholipidosis, LipidTOX Red imaging, 24 h; at 38.3 µM (top of the series) unless noted. The source says: National Center for Advancing Translational Sciences [NCATS]
Drug-induced Phospholipidosis (PLD) caused by cationic amphiphilic drugs is characterized by the appearance of unicentric or multicentric-lamellar bodies when viewed under electron microscope. Electron microscopy is the gold standard method for PLD detection, however, this method is time-consuming and labor intensive, making it unsuitable for evaluating a large set of compounds. A cell-based phospholipidosis assay has been developed using the LipidTox reagent in HepG2 cells and miniaturized into a 1536-well plate format. Drug induced phospholipid accumulation is stained with the LipidTox dyes in red color which then is determined using an automated high content screening system.
HepG2 cells are dispensed at 900 cells/3 uL/well into Collagen I-coated 1536-well black-wall/clear-bottom assay plates (Greiner Bio-One, Monroe, NC) using the Multidrop Combi 8 channel dispenser (Thermo Fisher, Waltham, MA, USA). The assay plates are incubated at 37 C for 4 hours to allow the cell attachment. 3 uL of 1:500 LipidTOX Red dye is added using the dispenser, and then 23 nL compounds are added via a Wako Pintool station (Wako Automation, San Diego, CA). Amiodarone, a known PLD inducer, was used as a positive control and DMSO was used as a negative control. The assay plates were then incubated at 37 C for 24 hours.
For fixations, 4 uL of 8% paraformaldehyde fixative solution containing 10 ug/mL Hoechst 33342 in Dulbecco's phosphate-buffered saline (DPBS) is added using a Kalypsys washer/dispenser (Kalypsys, San Diego, CA, USA). After incubation at room temperature for 30 min, the assay plates are washed once with DPBS using a Kalypsys washer/dispenser. The assay plates are then sealed and stored at 4 C before imaging. The fluorescence intensities (595 nm excitation, 615 nm emission for LipidTOX; 352 nm excitation, 461 nm emission for Hoechst 33342) are measured using an ImageXpress Micro Widefield High Content Screening System (Molecular Devices, Sunnyvale, CA, USA) with a 20x Plan Fluor objective. Images are acquired for one site in each well and analyzed with the MetaXpress software (Molecular Devices) using the Transfluor module. Several algorithmic outputs, such as pit count per well, pit count per cell, pit integrated intensity per well, and pit integrated intensity per cell, are used for quantitative image analysis for PLD.
In general terms: qHTS replaces the single test concentration by a dilution series.
Turning to `O=C(OC1CN2CCC1CC2)c1ccccc1` (stereo unspecified), the PLD induction is inactive: -0.324%.
In the case of `CN(C(=O)Cc1ccccc1)[C@H]1CC[C@@]2(CCCO2)C[C@@H]1N1CCCC1` it was inactive: 0.465%.
The figure for `Cc1cc([N+](=O)[O-])cc([N+](=O)[O-])c1O` is inactive: -6.61% [at 78.4 µM]; for `CCNC(C)Cc1ccc2c(c1)OCO2` (stereo unspecified) it is inactive: -3.31% [at 78.4 µM].
In the case of `NC(=O)Nc1ccc([As](=O)(O)O)cc1` it was inactive: -0.517%; in that of `CN(C(=O)Cc1ccc(Cl)c(Cl)c1)[C@H]1CC[C@@]2(CCCO2)C[C@@H]1N1CCCC1`, inactive: -2.71%.
